Test results: doi:10.1101/2025.02.07.636106
This is one part of the list.

Columns and labels:
[1] = biological target: Obg-like ATPase 1 (UniProt Q9NTK5); assay: cross-link between two proteins; cross-linking mass spectrometry
[2] = biological target: Vacuolar protein sorting-associated protein 29 (UniProt Q9UBQ0); assay: co-fractionation; co-fractionation
[3] = biological target: T1, Kelch-like protein 9 (UniProt Q9P2J3); assay: co-fractionation; co-fractionation
T1 sequence: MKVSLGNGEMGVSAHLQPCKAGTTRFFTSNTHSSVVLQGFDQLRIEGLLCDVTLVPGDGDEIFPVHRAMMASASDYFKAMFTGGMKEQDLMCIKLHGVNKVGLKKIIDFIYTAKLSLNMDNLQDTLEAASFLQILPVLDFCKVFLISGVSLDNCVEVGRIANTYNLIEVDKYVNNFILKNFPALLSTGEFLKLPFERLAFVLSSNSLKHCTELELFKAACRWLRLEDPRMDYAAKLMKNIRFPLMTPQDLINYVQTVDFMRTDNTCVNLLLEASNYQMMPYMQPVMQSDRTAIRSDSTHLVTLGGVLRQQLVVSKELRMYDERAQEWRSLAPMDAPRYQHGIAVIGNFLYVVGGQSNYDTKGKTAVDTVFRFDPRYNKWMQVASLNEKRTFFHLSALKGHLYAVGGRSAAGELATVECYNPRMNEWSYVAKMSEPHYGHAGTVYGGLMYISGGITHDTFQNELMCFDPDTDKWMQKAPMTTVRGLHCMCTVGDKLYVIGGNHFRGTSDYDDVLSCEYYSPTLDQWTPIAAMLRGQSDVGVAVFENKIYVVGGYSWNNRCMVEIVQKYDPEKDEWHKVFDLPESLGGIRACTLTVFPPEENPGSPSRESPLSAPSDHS

## DNA-directed RNA polymerase II subunit RPB2, P30876
[1]
  listed as a hit: yes

## Vacuolar protein sorting-associated protein 35, Q96QK1
[2]
  listed as a hit: yes

## Cullin-3, Q13618
[3]
  listed as a hit: yes
